Measured values as given in ChEMBL document CHEMBL4364306, “Structure-activity relationships of thiazole and benzothiazole derivatives as selective cannabinoid CB2 agonists with in vivo anti-inflammatory properties” (Eur J Med Chem, 2019).
Activity calls are given as the source filed them. The calls are words filed in the database; no cut-off is given here.

Chains of the proteins cited; added tags and fusions are not shown.
UniProt P34972, whole entry: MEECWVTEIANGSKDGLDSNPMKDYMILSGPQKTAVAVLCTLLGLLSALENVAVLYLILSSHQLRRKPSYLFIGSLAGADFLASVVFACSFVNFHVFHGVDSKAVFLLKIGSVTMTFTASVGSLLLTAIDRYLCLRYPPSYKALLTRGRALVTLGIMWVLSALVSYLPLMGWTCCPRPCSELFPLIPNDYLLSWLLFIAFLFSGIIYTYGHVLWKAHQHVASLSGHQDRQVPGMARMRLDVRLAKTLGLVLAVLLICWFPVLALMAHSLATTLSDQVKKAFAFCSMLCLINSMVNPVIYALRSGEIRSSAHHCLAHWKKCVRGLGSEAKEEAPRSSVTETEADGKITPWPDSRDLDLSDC

Target: Cannabinoid receptor 2 (Homo sapiens, UniProt P34972)
Test: Displacement of [3H]CP55940 from recombinant human CB2R expressed in HEK293 cell membranes at 10 uM incubated for 90 mins relative to control
Procedure, shortened: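 Membranes of HEK-293 cells expressing human recombinant CB2 (Bmax 4.7 pmol/mg protein) incubated with [3H]-CP-55,940 at 0.084 nM (Kd 0.31 nM) for 90 min at 30 °C. Compound screened at 10 µM for percent displacement. Nonspecific binding defined with WIN55,212-2.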

Cc1ccc(Cn2nc(C(=O)N[C@@H]3C(C)(C)[C@@H]4CC[C@@]3(C)C4)cc2-c2ccc(Cl)c(C)c2)cc1
Activity: Active
